Data on 13 molecules can be found in ChEMBL document CHEMBL2040829, “Highly regioselective synthesis of N-3 organophosphorous derivatives of 3,4-dihydropyrimidin-2(1H)-ones and their calcium channel binding studies” (Eur J Med Chem, 2012).

For the test, the species on record is Sus scrofa. The test is described as follows: Inhibition of calcium channel in pig carotid artery assessed as relaxation of KCl-induced vascular smooth muscle contraction at 0.001 to 10 uM.

SMILES strings stand for the structures.

A word on the inhibition: it is the relative decrease from the control value, in per cent.

`CCOC(=O)C1=C(C)NC(=O)N(P2(=O)NCCCN2)C1C` (stereo not drawn): the inhibition worked out at 0%.

Consider `COC(=O)C1=C(C)NC(=O)N(P(N)(N)=O)C1C` (stereo not drawn), for which the inhibition is 0%. In the case of `CCOC(=O)C1=C(C)NC(=O)N(P(N)(N)=O)C1` it was 0%; in that of `CCCCNP(=O)(NCCCC)N1C(=O)NC(C)=C(C(=O)OCC)C1c1ccccc1` (stereo not drawn), 0%. In the case of `CCOC(=O)C1=C(C)NC(=O)N(P(N)(N)=O)C1C` (stereo not drawn) it was 0%. In the case of `CC1=C(C(=O)OC(C)C)C(c2cccc([N+](=O)[O-])c2)N(P(N)(N)=O)C(=O)N1` (stereo not drawn) it was 0%; in that of `CCOC(=O)C1=C(C)NC(=O)N(P2(=O)NCCCO2)C1c1ccccc1` (stereo not drawn), 0%. Regarding `CCOC(=O)C1=C(C)NC(=O)N(P2(=O)NCCCCN2)C1c1ccccc1` (stereo not drawn), the inhibition was determined as 0%.

On to `CCOC(=O)C1=C(C)NC(=O)N(P(N)(N)=O)C1c1ccc(OC)cc1` (stereo not drawn), for which the inhibition came out at 0%. In the case of `CCOC(=O)C1=C(C)NC(=O)N(P(N)(N)=O)C1c1ccccc1` (stereo not drawn) it was 0%; in that of `COC(=O)C1=C(C)NC(=O)N(P(N)(N)=O)C1c1ccccc1` (stereo not drawn), 0%; in that of `CCOC(=O)C1=C(C)NC(=O)N(P(=O)(OCC)OCC)C1c1ccccc1` (stereo not drawn), 0%. With `CCOC(=O)C1=C(C)NC(=O)N(P(=O)(NCc2ccccc2)NCc2ccccc2)C1c1ccccc1` (stereo not drawn), the inhibition was 0%.
